US20070026433A1, “Epitope testing using soluble HLA” (priority 2001, published 2007)

Target: sHLA-A*0201 (Homo sapiens, UniProt P04439, D140Y/D185E/D98H/E176V/E277Q/G131W/G231S/I119V/I121R/I166T/I218V/L300P/L318F/N151K/N90K/P208A/P217A/Q86G/Q94H/R138H/R169H/T345S)
Assay: biochemical
Format: binding
Design: contained the leader peptide, as well as the α1, α2, and α3 coding domains of the HLA heavy chain; made in house; β2m from Fitzgerald Industries International
Conditions: 50 μg/mL (1059 nM) sHLA-A*0201, β2m 2117 nM, 1 nM FITC-labeled reference peptide P5; read-out: StD comp assay (FP) IC50

CSCC[C@H](NC(=O)[C@@H](N)Cc1ccc(O)cc1)C(=O)N[C@@H](CC(=O)O)C(=O)N[C@@H](CC(=O)O)C(=O)N[C@H](C(=O)N[C@H](C(=O)N[C@@H](CC(C)C)C(=O)NCC(=O)N[C@@H](C)C(=O)O)C(C)C)C(C)C showed a pIC50 of 6.08.

pIC50: −log10 of the molar value.
